pIC50: −log10 of the molar value.
Target: Transient receptor potential cation channel subfamily V member 1 (Rattus norvegicus, UniProt O35433)
Experiment: Capsaicin Antagonist Assay

Amino acid sequences for entries named in this document (tags omitted).
UniProt O35433, whole entry: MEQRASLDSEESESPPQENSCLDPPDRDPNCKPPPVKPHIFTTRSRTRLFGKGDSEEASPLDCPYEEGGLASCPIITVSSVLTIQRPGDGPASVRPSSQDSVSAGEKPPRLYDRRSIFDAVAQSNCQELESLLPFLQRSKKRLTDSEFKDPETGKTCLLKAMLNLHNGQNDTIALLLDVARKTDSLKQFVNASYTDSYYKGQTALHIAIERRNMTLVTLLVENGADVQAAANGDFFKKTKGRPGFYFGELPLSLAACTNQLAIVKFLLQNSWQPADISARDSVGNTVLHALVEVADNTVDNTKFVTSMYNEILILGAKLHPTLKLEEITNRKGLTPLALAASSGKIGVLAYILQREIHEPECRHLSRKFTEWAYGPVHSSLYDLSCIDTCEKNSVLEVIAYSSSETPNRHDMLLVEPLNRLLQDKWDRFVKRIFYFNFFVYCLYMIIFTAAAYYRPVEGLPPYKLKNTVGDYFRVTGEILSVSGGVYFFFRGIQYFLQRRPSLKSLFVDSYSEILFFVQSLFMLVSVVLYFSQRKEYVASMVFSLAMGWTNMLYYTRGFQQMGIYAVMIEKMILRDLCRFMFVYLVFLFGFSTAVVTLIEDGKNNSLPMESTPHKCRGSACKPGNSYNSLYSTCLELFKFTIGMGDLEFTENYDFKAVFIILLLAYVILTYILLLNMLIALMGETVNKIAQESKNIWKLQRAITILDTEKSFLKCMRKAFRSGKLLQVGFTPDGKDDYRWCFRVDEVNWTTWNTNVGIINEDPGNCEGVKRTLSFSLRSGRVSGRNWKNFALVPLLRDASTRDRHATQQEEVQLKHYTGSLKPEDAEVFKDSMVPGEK

## CC(C)(C)c1ccc(/C=C\C(=O)Nc2ccc3c(c2)OCCO3)cc1 [AMG9810]
  pIC50: 6.46
pH 7.4, 22 °C
  pIC50: 7.10

Reference: BindingDB's records for doi:10.1021/jm070189q (Amgen, 2007)
